Experimental data published in PMC7763263 (2020).
Read-outs that look alike come from different tables or passages of the source.

Sequences of proteins named here, by UniProt entry; tags and fusion partners are left off. Residues count along the entry.
UniProt P21397, whole entry: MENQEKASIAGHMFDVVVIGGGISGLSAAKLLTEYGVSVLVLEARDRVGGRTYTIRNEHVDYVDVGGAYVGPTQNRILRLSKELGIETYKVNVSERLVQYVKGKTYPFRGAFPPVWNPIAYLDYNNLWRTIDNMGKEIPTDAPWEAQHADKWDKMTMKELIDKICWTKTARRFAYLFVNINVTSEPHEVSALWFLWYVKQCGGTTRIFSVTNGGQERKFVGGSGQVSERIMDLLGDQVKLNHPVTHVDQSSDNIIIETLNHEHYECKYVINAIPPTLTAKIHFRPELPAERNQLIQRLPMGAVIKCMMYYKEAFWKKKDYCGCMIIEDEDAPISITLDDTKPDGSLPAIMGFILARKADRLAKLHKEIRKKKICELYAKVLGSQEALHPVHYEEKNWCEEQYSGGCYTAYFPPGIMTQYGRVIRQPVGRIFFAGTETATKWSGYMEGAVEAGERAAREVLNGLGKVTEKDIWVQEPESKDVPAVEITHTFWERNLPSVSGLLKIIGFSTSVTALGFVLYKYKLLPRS
UniProt P27338, whole entry: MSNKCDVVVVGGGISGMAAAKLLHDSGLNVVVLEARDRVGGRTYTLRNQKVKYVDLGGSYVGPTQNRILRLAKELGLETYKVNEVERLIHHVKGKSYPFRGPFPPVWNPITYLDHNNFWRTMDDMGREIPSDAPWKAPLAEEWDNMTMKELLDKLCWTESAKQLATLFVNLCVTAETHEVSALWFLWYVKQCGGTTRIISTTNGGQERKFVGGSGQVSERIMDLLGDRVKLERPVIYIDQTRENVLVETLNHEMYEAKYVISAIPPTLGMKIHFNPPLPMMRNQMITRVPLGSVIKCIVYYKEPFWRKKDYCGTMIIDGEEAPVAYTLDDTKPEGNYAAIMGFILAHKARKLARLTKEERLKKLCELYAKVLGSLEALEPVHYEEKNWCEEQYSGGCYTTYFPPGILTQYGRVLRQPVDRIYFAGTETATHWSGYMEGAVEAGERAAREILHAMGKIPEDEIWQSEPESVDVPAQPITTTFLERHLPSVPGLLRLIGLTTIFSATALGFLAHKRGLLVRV
UniProt P27338, 2-520 limits assumed: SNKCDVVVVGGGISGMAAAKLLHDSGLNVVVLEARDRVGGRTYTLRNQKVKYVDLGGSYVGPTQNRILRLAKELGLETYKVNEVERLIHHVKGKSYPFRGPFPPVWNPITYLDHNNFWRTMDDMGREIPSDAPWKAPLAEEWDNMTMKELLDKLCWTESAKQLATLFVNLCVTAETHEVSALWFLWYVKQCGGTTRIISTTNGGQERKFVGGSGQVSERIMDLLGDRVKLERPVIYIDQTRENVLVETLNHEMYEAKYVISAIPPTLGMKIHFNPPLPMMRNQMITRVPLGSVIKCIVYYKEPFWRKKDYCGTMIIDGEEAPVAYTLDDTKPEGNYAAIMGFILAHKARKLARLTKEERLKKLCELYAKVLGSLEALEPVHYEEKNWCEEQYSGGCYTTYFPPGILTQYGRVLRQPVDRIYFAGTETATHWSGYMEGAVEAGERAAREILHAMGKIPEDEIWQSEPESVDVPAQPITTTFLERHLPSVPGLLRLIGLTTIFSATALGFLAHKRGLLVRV

Assays:
MAO-A [1] = biological target: T1, MAO-A (Homo sapiens, UniProt P21397); details: read-out: MAO-A Ki Direct; ref Binda et al. [11]; cited from earlier work
human MAO-B [2] = biological target: T2, human MAO-B (Homo sapiens, UniProt P27338); details: human MAO in insect cell membranes, saturating substrate
MAO-A [3] = biological target: T1, MAO-A; assay: IC50 after 30 min preincubation, coupled assay with saturating substrate; details: ratio of IC50 without/with 30 min preincubation
human MAO-B [4] = biological target: T2, human MAO-B; details: without preincubation, tyramine 2× KM (0.32 mM); mean ± SD of 2–4 experiments
human MAO-B [5] = biological target: T2, human MAO-B; assay: Reversible inhibition Ki, direct assay; details: read-out: Km as MAO-B substrate; phenelzine oxidized by MAO-B
MAO-A [6] = biological target: T1, MAO-A; details: read-out: MAO-A IC50 AR Assay; initial reversible inhibition; ref Binda et al. [11]; cited from earlier work
human MAO-B [7] = biological target: T2, human MAO-B; details: read-out: MAO-B KI; inactivation constant; cited from earlier work
human MAO-B [8] = biological target: T2, human MAO-B; details: cited from earlier work

For `NNCCc1ccccc1` [Phenelzine], the Ki (MAO-A [1]) is given as 47 ± 2 µM, the “MAO-B IC50 after 30 min preincubation” value (human MAO-B [2]) is given as “Substrate” and the “MAO-A Enhancement” value (MAO-A [3]) is given as 24.9. For the same compound, the “MAO-B IC50 AR Assay” value (human MAO-B [4]) was “(substrate)”, the Km (human MAO-B [5]) was 215 µM and the IC50 (MAO-A [6]) was 112 ± 28 µM. The Ki (human MAO-B [7]) was 50 µM, the Ki (human MAO-B [8]; read-out: Ki for reversible inhibition of MAO-B, assay not stated) was 47 µM and the Ki (human MAO-B [8]; read-out: MAO-B Ki Direct, direct assay, ref Binda et al. [11]) was 15 ± 2 µM.
